{"source": "patent US20210179655A1", "about": "“Prodrugs of a JAK Inhibitor Compound for Treatment of Gastrointestinal Inflammatory Disease” (THERAVANCE BIOPHARMA R&D IP, LLC, priority 2015, published 2021)", "tested_on": "splenic NK cells", "assay": "Immunosuppression effects in mouse splenic natural killer (NK) cells", "format": "in vivo", "settings": "10, 30 and 60 mg/kg; PO, TID; three days, naïve mice", "data": [{"smiles": "C[C@@H]1CCN(C(=O)CC#N)C[C@@H]1N(C)c1ncnc2[nH]ccc12", "note": "[Tofacitinib, 3-((3R,4R)-4-methyl-3-(methyl(7H-pyrrolo[2,3-d]pyrimidin-4-yl)amino)piperidin-1-yl)-3-oxopropanenitrile, reference compound]", "values": [{"measurement": "splenic NK cell counts", "value": "dose-dependently and significantly decreased"}]}]}
